Reference: ChEMBL document CHEMBL1800071, “Switching reversibility to irreversibility in glycogen synthase kinase 3 inhibitors: clues for specific design of new compounds” (J Med Chem, 2011)

Biological target: Muscarinic acetylcholine receptor (Rattus norvegicus) (UniProt P08482+P08483+P08485+P08911+P10980)
Experiment: Displacement of [3H]-QNB from muscarinic receptor in rat cerebral cortex at 10 uM
Format: tissue-based

Cc1ccc(C(=O)CBr)cc1
inhibition: 13%
